Key:
[1] = system: FCA-induced hyperalgesia; test: Freunds Complete Adjuvant (FCA)-induced hyperalgesia, paw pressure threshold; conditions: rat, oral administration, 3 mg/kg dose, PPT assessed 60 minutes after drug treatment, 24 h after intraplantar FCA; tested form: dihydrochloride, 1.75 hydrate
Protocol: Freunds Complete Adjuvant (FCA)-Induced Hyperalgesia
Rats were injected intraplantar with FCA and 24 h later treated with tested compounds administered orally. Paw Pressure Thresholds (PPT) was assessed 60 minutes after drug treatment. In this assay, 43D produced siginificant anti-hyperalgesic activity (193±47% antihyperalgesia) after oral administration (3 mg/kg dose).

Protein sequences, listed by entry. Tags and fused reporters are not part of them.
UniProt P41145, whole entry: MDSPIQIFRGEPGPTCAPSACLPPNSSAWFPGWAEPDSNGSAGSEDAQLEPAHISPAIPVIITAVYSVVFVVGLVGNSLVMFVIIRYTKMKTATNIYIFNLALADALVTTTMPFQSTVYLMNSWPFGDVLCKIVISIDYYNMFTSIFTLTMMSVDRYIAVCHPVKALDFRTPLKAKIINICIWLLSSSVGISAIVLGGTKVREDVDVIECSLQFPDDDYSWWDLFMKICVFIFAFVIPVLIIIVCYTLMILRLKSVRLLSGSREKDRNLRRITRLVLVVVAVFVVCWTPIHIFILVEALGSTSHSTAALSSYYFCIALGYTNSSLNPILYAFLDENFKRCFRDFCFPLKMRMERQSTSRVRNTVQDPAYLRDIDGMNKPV
UniProt P35372, whole entry: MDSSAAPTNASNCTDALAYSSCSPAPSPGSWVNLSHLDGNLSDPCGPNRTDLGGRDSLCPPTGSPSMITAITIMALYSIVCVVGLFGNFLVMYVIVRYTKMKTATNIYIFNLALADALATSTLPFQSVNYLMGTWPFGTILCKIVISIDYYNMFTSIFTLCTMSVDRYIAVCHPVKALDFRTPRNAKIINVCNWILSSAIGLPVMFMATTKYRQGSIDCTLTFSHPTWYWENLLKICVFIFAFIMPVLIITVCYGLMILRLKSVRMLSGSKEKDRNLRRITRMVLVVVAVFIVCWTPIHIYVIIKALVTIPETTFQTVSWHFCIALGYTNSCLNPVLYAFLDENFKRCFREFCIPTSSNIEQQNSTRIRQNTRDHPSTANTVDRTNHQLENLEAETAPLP

[2] = target: T1, cloned human δ opioid receptor (Homo sapiens, UniProt P41143); test: [3H]diprenorphine receptor binding, δ opioid receptor; conditions: read-out: affinity (Ki value), delta opioid receptor, inhibition of [3H]diprenorphine binding, tested form: dihydrochloride, 1.75 hydrate
Protocol: (§1) The potencies of the compounds listed in Table 2 were determined by testing the ability of a range of concentrations of each compound to inhibit the binding of the non-selective opioid antagonist, [^3H]diprenorphine, to the cloned human μ, κ, and δ opioid receptors, expressed in separate cell lines. IC50 values were obtained by nonlinear analysis of the data using GraphPad Prism version 3.00 for Windows (GraphPad Software, San Diego). Ki values were obtained by Cheng-Prusoff corrections of IC50 values.
(§2) The receptor binding method (DeHaven and DeHaven-Hudkins, 1998) was a modification of the method of Raynor et al. (1994). […] The filters were rinsed 4 times with 1 mL of cold 50 mM Tris HCl, pH 7.8 and radioactivity remaining on the filters determined by scintillation spectroscopy. Nonspecific binding was determined by the minimum values of the titration curves and was confirmed by separate assay wells containing 10 μM naloxone. Ki values were determined by Cheng-Prusoff corrections of IC50 values derived from nonlinear regression fits of 12 point titration curves using GraphPad Prism® version 3.00 for Windows (GraphPad Software, San Diego, Calif.).
(§3) To determine the equilibrium dissociation constant for the inhibitors (Ki), radioligand bound (cpm) in the presence of various concentrations of test compounds was measured. […]

[3] = target: cloned human κ opioid receptor (Homo sapiens, UniProt P41145); test: [3H]diprenorphine receptor binding, κ opioid receptor; conditions: read-out: affinity (Ki value), kappa opioid receptor, inhibition of [3H]diprenorphine binding, tested form: dihydrochloride, 1.75 hydrate
Protocol: as §1, §2, §3

[4] = target: cloned human μ opioid receptor (Homo sapiens, UniProt P35372); test: [3H]diprenorphine receptor binding, μ opioid receptor; conditions: read-out: affinity (Ki value), mu opioid receptor, inhibition of [3H]diprenorphine binding, tested form: dihydrochloride, 1.75 hydrate
Protocol: as §1, §2, §3

[5] = target: T1, cloned human δ opioid receptor; test: Receptor-mediated [35S]GTPγS binding (agonist potency); type: biochemical; conditions: read-out: in vitro δ agonist activity (EC50); stimulation of [35S]GTPγS binding, membranes with cloned human δ opioid receptor; tested form: dihydrochloride, 1.75 hydrate
Protocol: The potency and efficacy of compounds at each of the receptors are assessed by modifications of the methods of Selley et al., 1997 and Traynor and Nahorski, 1995 using receptor-mediated [^35S]GTPγS binding in the same membrane preparations used to measure receptor binding. Assays are carried out in 96-well FlashPlates® (Perkin Elmer Life Sciences, Inc, Boston, Mass.). […] After incubation at room temperature for one hour, the plates are sealed, centrifuged at 800×g in a swinging bucket rotor for 5 min and bound radioactivity determined with a TopCount microplate scintillation counter (Packard Instrument Co., Meriden, Conn.).
EC50 values for agonists are determined from nonlinear regression fits of 8- or 12-point titration curves to the 4-parameter equation for a sigmoidal dose-response with a slope factor of 1.0 using GraphPad Prism® version 3.00 for Windows (GraphPad Software, San Diego, Calif.).
The potencies of the compounds were determined by testing the ability of a range of concentrations of each compound to inhibit the binding of the non-selective opioid antagonist, [^3H]diprenorphine, to the cloned human μ, κ, and δ opioid receptors, expressed in separate cell lines. […] The potencies of the agonists were assessed by their abilities to stimulate [^35S]GTPγS binding to membranes containing the cloned human δ opioid receptors.

Which “% antihyperalgesia” value [1] does the source give for `CCN(CC)C(=O)c1ccc(C2=CC3(CCCNCC3)Oc3cccc(O)c32)cn1` (centres unmarked) here?
Its value is 193±47%.

What about the Ki [2] of the same molecule?
The Ki was 2.5 nM.

And the Ki [3]?
Its Ki is > 1000 nM.

And the Ki [4]?
The Ki was > 100 nM.

And the EC50 [5]?
The EC50 was 63 nM.

Reference: patent publication US7598261B2, “Spirocyclic heterocyclic derivatives and methods of their use” (Adolor Corporation, priority 2005, dated 2009)
